Sfp inh: qHTS Assay for Inhibitors of Bacillus subtilis Sfp phosphopantetheinyl transferase (PPTase) | Biochemical Sfp PPTase activity, qHTS | Potency, µM, without a hit: max response, negative = inhibition, most hits filed as inhibitors | actives 3.5% (n = 310,000) | AID 1490, 2009 | 4'-phosphopantetheinyl transferase ffp (Bacillus subtilis), Q9F4F7; active = well fitted inhibition curve with a large enough effect; inconclusive = small, poorly fitted or top-dose-only effect, or another doubt; inactive = no such curve, though single readings can be large or run the other way;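 note: the enzyme is Sfp with the accession as filed and its product quenches rhodamine fluorescence; potency is the fitted concentration of half-maximal effect; 0% = enzyme reaction without inhibitor and -100% = no enzyme wells; top concentration of the series not given in the record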
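Buffer: 50 mM Hepes-Na pH 7.6, 10 mM MgCl2, 0.01% Nonidet P-40, 0.01% BSA. Enzyme 15 nM, pre-exposed to compound 15 min; substrates then added and fluorescence change tracked over 30 min.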
ALDH1A1 block: blocks purified human ALDH1A1 activity; P00352; Purified ALDH1A1, NADH fluorescence, propionaldehyde substrate; Potency, µM (titrated, usually from 75.3 µM), for the others: at the top dose activity, negative = inhibition, most hits filed as inhibitors; 220,000 compounds, 7.3% hits; AID 1030; active = well fitted inhibition curve with a large enough effect, not every such curve was filed as active; inconclusive = small, poorly fitted or top-dose-only effect, or another doubt; inactive = no such curve, though single readings can be large or run the other way;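 also: potency is read from the fitted curve at half-maximal effect; plate controls were no enzyme wells and a reference inhibitor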
G9a block: inhibitors of human histone lysine methyltransferase G9a | Potency, µM (series often up to 102 µM), inactives show at the top dose activity, negative = inhibition, most hits filed as inhibitors | Q96KQ7 | 350,000 compounds, 8.8% hits | G9a H3K9 monomethylation, AlphaScreen, 2 h; also: potency is read from the fitted curve at half-maximal effect; % is scaled to controls: 0 for no effect and ±100 for the full control effect; nearly all actives have a fitted effect of over 75% in size
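Compounds were preincubated with 20 nM G9a for 15 min, after which biotinylated H3K9 peptide (500 nM) and SAM (20 uM) started a 2 h room-temperature reaction. Monomethylated product was quantified by antibody-based AlphaScreen chemiluminescence.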
JMJD2E inh: blocks human JMJD2E demethylase activity | B2RXH2 | JMJD2E catalytic domain, FDH-coupled NADH fluorescence (FDH is formaldehyde dehydrogenase) | Potency, µM (doses to about 57.1 µM), inactives show at the top dose activity change, negative = inhibition, actives largely listed as inhibitors | 230,000 compounds, 1.6% hits | AID 2147; active = well fitted inhibition curve with a large enough effect, not every such curve was filed as active; inconclusive = small, poorly fitted or top-dose-only effect, or another doubt; inactive = no such curve, though single readings can be large or run the other way;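 also: potency is read from the fitted curve at half-maximal effect; 0% = wells with enzyme and -100% = buffer wells without enzyme; nearly all actives have a fitted effect of over 50% in size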
Lamin A splicing: LMNA splicing modulation. 200,000 compounds, 0.01% hits. HeLa LMNA splicing GFP/RFP minigene ratio, 48 h. Potency, µM (series often up to 46.1 µM), inactives show at the highest dose ratio change, negative = inhibition, most hits filed as inhibitors; active = well fitted inhibition curve with a large enough effect in the signal ratio, with a control signal flat, not every such curve was filed as active; inconclusive = small, poorly fitted or top-dose-only effect, or effect the other way, or a change in a side signal; the % refers to the signal ratio; also: potency is read from the fitted curve at half-maximal effect; % is scaled to controls: 0 for no effect and ±100 for the full control effect
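Read-out is the ratio of GFP to DsRed2 object intensity, acquired by 488 nm laser-scanning cytometry on HeLa lamin A-EGFP minigene reporter cells. Compound incubation 48 hrs at 37 °C in Opti-MEM with 2% FBS; DMSO 0.5% final.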
miR-21 FLuc: miR-21 reporter, rising signal; Potency, µM (titrated, usually from 38.3 µM), without a hit: at the highest dose reporter change, positive = more light; AID 2288; 340,000 tested, under 10 active; HeLa miR-21 FLuc reporter, luciferase, 48 h; active = well fitted rising curve with a large enough effect; inconclusive = small, poorly fitted or top-dose-only effect; inactive = no such curve, though single readings can be large or run the other way;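 note: % of control where 0% means no effect; miR-21 action dims this reporter so a rising signal means less miR-21 action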
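HeLa cells stably expressing CMV-driven firefly luciferase with a downstream miR-21 binding sequence, endogenously expressing miR-21, were treated with titrations (up to about 40uM final) for 48 hours at 37 degree Celsius. Luciferase luminescence was read after lysis.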
Starred values were filed as active, the others as inactive; ? = inconclusive; nt = no result; ! = not active in a repeat; [ ] = remark or other dose. Compounds with a hit are over-represented: about 13% of the library has one in this group of screens. Unless noted, calls follow the shape of the dose curve; as a rule, active = well fitted curve in the direction sought with a large enough effect; inconclusive = small, poorly fitted or top-dose-only effect, or another doubt; inactive = no such curve, though single readings can be large; an effect the other way counts as inactive or inconclusive.

Labels used below – A = Sfp inh; B = ALDH1A1 block; C = G9a block; D = JMJD2E inh; E = Lamin A splicing; F = miR-21 FLuc
1: Cc1cc(-c2n[nH]c(=S)n2/N=C/c2cccc(O)c2)n[nH]1
  A: -23% | B: 1% | C: 2.2µM* | D: 13% | E: nt | F: -14%
2: Cc1cc(-c2n[nH]c(=S)n2/N=C/c2cccc([N+](=O)[O-])c2)n[nH]1
  A: -24% | B: ? | C: 1.6µM* | D: -22% | E: -1% | F: 1%
3: Cc1n[nH]c(=S)n1/N=C/c1cccc(OCc2ccccc2)c1
  A: ? | B: -9% | C: nt | D: -7% | E: nt | F: -38%
4: Cc1nnc(C)n1/N=C/c1cccc([N+](=O)[O-])c1
  A: 7% | B: ? | C: 2% | D: 1% | E: 3%[46 µM] | F: 4%
5: COc1ccc([C@@H](C)c2cc3c(cc2O)OCO3)cc1
  A: nt | B: 3%[13.5 µM] | C: nt | D: nt | E: nt | F: nt
6: Oc1cc2c(cc1C(c1ccc(Cl)c(Cl)c1)N1CCCC1)OCO2 (stereo not drawn)
  A: ? | B: 0.79µM* | C: 1.4µM* | D: 2% | E: nt | F: -12%
7: CC(=O)Nc1ccc(NC(=O)COc2c(C)cc(Br)cc2C)cc1
  A: 11% | B: -5% | C: -28% | D: -8% | E: nt | F: -5%
8: Cc1cc(Br)c(OCC(=O)NN)c2c1CCC2
  A: -2% | B: 2µM* | C: -2% | D: 0% | E: nt | F: 21%
9: CCc1ccc(NC(=O)c2cnc(SC)nc2C)cc1
  A: 12% | B: nt | C: 25% | D: nt | E: nt | F: -19%
10: Cn1cc(-c2nc3cnc(Oc4ccccc4)nc3n(CCC#N)c2=O)c2ccccc21
  A: 6% | B: -4% | C: -1%[12.7 µM] | D: nt | E: nt | F: nt
11: CCc1ccc(-c2cn3c(n2)sc2cc(C(=O)NCCC4=CCCCC4)ccc23)cc1
  A: nt | B: nt | C: ? | D: nt | E: ? | F: 2%
12: O=C(Nc1ccccc1Cl)Oc1ccc(-c2ccccc2)cc1
  A: 7% | B: nt | C: 3%[12.7 µM] | D: 7% | E: nt | F: -29%
13: C/C(=N\NC(=O)c1cc(-c2ccco2)nc2ccccc12)c1cccnc1
  A: 1% | B: ? | C: 40µM* | D: ? | E: -5%[46 µM] | F: 16%
14: CCOc1ccc(-c2cc(C(=O)N/N=C(\C)c3cccnc3)c3ccccc3n2)cc1
  A: -11% | B: nt | C: 35µM* | D: nt | E: nt | F: -9%
15: COc1ccc(OC)c(-c2cc(C(=O)N/N=C(\C)c3cccnc3)c3ccccc3n2)c1
  A: -1% | B: nt | C: nt | D: nt | E: nt | F: 1%

Next part; it opens with the three that closed the last part.
Labels used below – A = Sfp inh; B = ALDH1A1 block; C = G9a block; D = JMJD2E inh; E = Lamin A splicing; F = miR-21 FLuc
13: C/C(=N\NC(=O)c1cc(-c2ccco2)nc2ccccc12)c1cccnc1
  A: 1% | B: ? | C: 40µM* | D: ? | E: -5%[46 µM] | F: 16%
14: CCOc1ccc(-c2cc(C(=O)N/N=C(\C)c3cccnc3)c3ccccc3n2)cc1
  A: -11% | B: nt | C: 35µM* | D: nt | E: nt | F: -9%
15: COc1ccc(OC)c(-c2cc(C(=O)N/N=C(\C)c3cccnc3)c3ccccc3n2)c1
  A: -1% | B: nt | C: nt | D: nt | E: nt | F: 1%
16: CCc1cc2c(-c3ccccc3)cc(=O)oc2c2c1OCN(Cc1ccc(F)cc1)C2
  A: nt | B: nt | C: 19%[59 µM] | D: nt | E: nt | F: -15%
17: CCCCN(c1ccccc1)S(=O)(=O)c1cccc2cccnc12
  A: 0% | B: nt | C: nt | D: -2% | E: nt | F: 3%
18: O=C(NCCC(=O)N1CCNC1=O)OCc1ccccc1
  A: 50µM* | B: 0% | C: -45%[12.7 µM] | D: 2% | E: 14% | F: -1%
19: N=C1Sc2ccccc2C2=NCCCN12
  A: nt | B: 10µM* | C: 0.11µM* | D: ? | E: -15% | F: nt
20: Cn1c(=O)oc2cc(S(=O)(=O)N3CCCC(C(=O)N4CC=C(c5ccccc5)CC4)C3)ccc21 (stereo not drawn)
  A: 20% | B: ? | C: 50µM* | D: -3% | E: ? | F: 9%
21: O=C(Cn1c(=O)oc2cc(S(=O)(=O)N3CCOCC3)ccc21)N1CCc2ccccc2C1
  A: 0% | B: -11% | C: -4% | D: 6% | E: -1% | F: 2%
22: O=C(Cn1c(=O)oc2cc(S(=O)(=O)N3CCCC3)ccc21)N1CCc2ccccc2C1
  A: -4% | B: 11µM* | C: -8% | D: -4% | E: -12% | F: -1%
23: CCCc1nc(SCc2cc(=O)c3ccc(C)c(C)c3[nH]2)n[nH]1
  A: nt | B: nt | C: 56%[59 µM] | D: nt | E: ? | F: -3%
24: CCCNC(=O)COCc1cc(-c2ccc(F)cc2)on1
  A: nt | B: nt | C: -22%[59 µM] | D: nt | E: 12%[46 µM] | F: -52%
25: O=C(c1ccc(Cl)c(S(=O)(=O)N2CCCCC2)c1)N1CCCC(C(F)(F)F)C1 (stereo not drawn)
  A: nt | B: nt | C: 25%[59 µM] | D: nt | E: nt | F: nt
26: COc1ccc(-c2noc(CC(=O)Nc3ccc(F)cc3F)n2)cc1
  A: nt | B: nt | C: 8%[59 µM] | D: nt | E: nt | F: ?
27: CCOCCCNC(=O)C(Cc1ccccc1)NS(=O)(=O)c1ccc2c(c1)c(=O)n(C)c(=O)n2C (stereo not drawn)
  A: 15% | B: ? | C: -23% | D: -19% | E: nt | F: -3%
28: Cn1c(=O)c2cc(S(=O)(=O)NC(C(=O)N3CCCCCC3)c3ccccc3)ccc2n(C)c1=O (stereo not drawn)
  A: -4% | B: 3.2µM* | C: 45µM* | D: -6% | E: 2% | F: -1%
29: CC(C)OCCCNC(=O)C(NS(=O)(=O)c1ccc2c(c1)c(=O)n(C)c(=O)n2C)c1ccccc1 (stereo not drawn)
  A: 1% | B: ? | C: 14µM* | D: ? | E: nt | F: -1%
30: Cn1c(=O)c2cc(S(=O)(=O)NC(C(=O)NC3CCCCC3)c3ccccc3)ccc2n(C)c1=O (stereo not drawn)
  A: 25% | B: -7% | C: 19% | D: 0% | E: 4% | F: -5%
31: Cc1ccc(S(=O)(=O)N2CCC(C(=O)OC(C)C(=O)NCc3ccccc3)CC2)cc1C (stereo not drawn)
  A: 1% | B: nt | C: nt | D: nt | E: nt | F: -2%
32: COc1ccc(CN2CCCCC2c2cccnc2)c(OC)c1C (stereo not drawn)
  A: 5% | B: 6% | C: 79µM* | D: 2% | E: 1% | F: -4%
33: COc1ccc(C2C(=O)c3ccccc3C2=Nc2ccc(Br)cc2)cc1 (stereo not drawn)
  A: 1% | B: 28µM* | C: ? | D: 4% | E: 3% | F: 4%
34: CCN(Cc1ccccc1)C(=O)CCS(=O)(=O)c1cc2c(cc1Cl)NC(=O)CO2
  A: -2% | B: nt | C: 50µM*! | D: nt | E: 3%[46 µM] | F: 1%
35: Cc1ccc(S(=O)(=O)c2cnc(SC(C)C(=O)Nc3ccccc3)[nH]c2=O)cc1 (stereo not drawn)
  A: nt | B: nt | C: 0%[59 µM] | D: nt | E: nt | F: -2%
36: Cc1ccc(S(=O)(=O)N2CCCC2C(=O)OCc2ccco2)cc1 (stereo not drawn)
  A: ? | B: 2.8µM* | C: ? | D: ? | E: 11% | F: -2%
37: CC(=O)Nc1nc(C)nc(C)c1C(C)=O
  A: 18% | B: 5% | C: -26% | D: -4% | E: -15% | F: -3%
38: CCC(=O)Nc1nc(C)nc(C)c1C(C)=O
  A: 14% | B: 10% | C: 45µM* | D: 3% | E: 4% | F: 0%
39: O=C(CN1C(=O)S/C(=C/c2cccn2-c2ccc(O)cc2)C1=O)N1CCCC1
  A: 9% | B: nt | C: -8% | D: nt | E: nt | F: 1%
40: O=C(O)c1cccc(-n2cccc2/C=C2/SC(=O)N(CC(=O)N3CCCC3)C2=O)c1
  A: -10% | B: nt | C: 45µM* | D: nt | E: nt | F: 1%
41: O=C(N/N=C/c1cccn1-c1cccc(C(=O)O)c1)Nc1ccccc1
  A: -24% | B: 2% | C: -6%[59 µM] | D: 10% | E: -12% | F: -34%
42: O=C(O)c1cccc(-n2cccc2/C=C2\SC(=O)N(Cc3ccccc3F)C2=O)c1
  A: -8% | B: ? | C: 8.9µM* | D: 0% | E: 0% | F: -1%
43: Cc1ccc(-c2nnc(Nc3ccc(O)cc3)c3ccccc23)cc1S(=O)(=O)NC(C)(C)CO
  A: nt | B: nt | C: 1%[59 µM] | D: nt | E: nt | F: -7%
44: CC(C)(C)Nc1scc(-c2ccccc2)[n+]1-c1ccccc1
  A: -4% | B: ? | C: 45µM* | D: -3% | E: -27%[46 µM] | F: -5%
45: CC[n+]1c(-c2ccccc2)csc1Nc1c(C)n(C)n(-c2ccccc2)c1=O
  A: 1% | B: 0% | C: ? | D: 1% | E: -5% | F: -2%
46: COC(=O)c1c(NC(=O)C2CCCCC2C(=O)O)sc2c1CCCCC2 (stereo not drawn)
  A: 1% | B: ? | C: 32µM* | D: -22% | E: -6%[46 µM] | F: -36%
